{
  "source": "patent US20060135484A1",
  "about": "“Vesicant treatment with phenyl-thiophene type vitamin d receptor modulators” (published 2006)",
  "data": [
    {"experiment": "Mouse hypercalcemia assay", "units": {"Mouse Hypercal": "µg/kg/day"}, "values": [
      {"smiles": "CCCc1cc(C(CC)(CC)c2ccc(C(=O)O)s2)ccc1OCC(O)C(C)(C)C", "note": "(single isomer, unassigned) [Ex. 95]", "Mouse Hypercal": ">6000"},
      {"smiles": "CCc1cc(C(CC)(CC)c2ccc(C(=O)O)s2)ccc1OCC(O)C(C)(C)C", "note": "(single isomer, unassigned) [Ex. 101]", "Mouse Hypercal": 12000},
      {"smiles": "CCC(CC)(c1ccc(CCC(O)C(C)(C)C)c(C)c1)c1cc(C)c(S(=O)(=O)NCC(=O)O)s1", "note": "(single isomer, unassigned) [Ex. 181]", "Mouse Hypercal": ">3000"}
    ]}
  ]
}
